Results: patent US20220273926A1, “DRUG DELIVERY USING MICRONEEDLE ARRAYS” (BOARD OF REGENTS OF THE UNIVERSITY OF NEBRASKA, priority 2019, published 2022)
Entries after “also recorded” stand apart in the source; their conditions may differ.

What was measured:
[1] = Release profile from hydrogel-filled MNAs; type: physicochemical
Protocol: Release Profile Experimentation: Three different concentrations of hydrogel were studied for evaluating release kinetics of BSA as protein and Rhodamine B as neutral charge molecule from alginate and PEGDA hydrogels. BSA solution (ThermoFisher Scientific, Micro BCA™ Protein Assay Kit) mixed with three different concentrations of alginate gel (1.2%, 1.8%, and 2.5% (w/v)). This stock solution with 2000 μg/mL of BSA diluted with alginate solutions to reach 15 μg/mL final concentration of BSA. MNAs were filled with this BSA-containing alginate solution and Calcium Chloride (CaCl2) used for crosslinking following this protocol: first placing MNAs in 3% (w/v) agarose gel containing 2% (v/v) CaCl2 for few minutes and then pipetting additional 2% (v/v) CaCl2 over the tops to ensure complete crosslinking.
To perform a 3-day long release study, each needle array was placed in 0.5 mL of PBS. Samples were taken from solution at each time point over the course of 72 hrs and were stored in micro vials at room temperature over the duration of the release. […] Once reagents and samples were mixed, plates were incubated at 37° C. for an hour, and a plate reader (BioTech) used to read the absorption. Absorption values from the plate reader converted to concentrations using a calibration curve. […]

[2] = Drug adsorption to the bandage: solution perfused through the MNAs; type: physicochemical; details: perfusion through bandage and MNAs; BSA 54 ng/mL, cefazolin 16 μg/mL
[3] = test system: full-thickness wounds on the dorsum of Yorkshire pigs; details: pig, in vivo
[4] = test system: full-thickness skin wounds of diabetic (Lepr^db) mice; details: 20-day procedure; all study groups, no significant difference between groups
Text: On the day of surgery, mice received a full thickness (1×1 cm^2) skin wound on their dorsum. Mice with the full thickness (1×1 cm^2) wound on their dorsum were kept untreated for 5 days to allow eschar formation. Animals received treatment via three different delivery methods on days 5 and 7 post-surgery. […] Similar to in vitro experiments, to minimize the potential injury upon the delivery of therapeutics intradermally using LJI, a layer of agarose was placed between the wound and the nozzle.
Small Animal studies: Murine animal procedures were approved by the Institutional Animal Care and Use Committee (IACUC) of the University of Nebraska, Lincoln. Six to seven weeks old B6.BKS(D)-Lepr^db/J mice were obtained from the Jackson Laboratory (Bar Harbor, Me.). Since this mouse strain had congenic obesity, the animals were put on a special food diet. […] On day 0 of the study, 5% isoflurane was provided via a nose cone for anesthetization of animals and 3% isoflurane was used for maintaining sedation. The hair on the dorsal area was shaved, the skin was sterilized, and a full-thickness skin cut of 1 cm×1 cm was created. Buprenorphine SR was administered for pain relief at the time of surgery.
Animals received treatments on day 5 and day 7 post-surgery. […]

Row | Substance | release pattern from PEGDA-filled MNAs ([1]; PEGDA 23% (v/v), 3-day study) | release profile from alginate-filled MNAs ([1]; alginate, three concentrations, 3 mm and 2 mm MNAs, 72 hrs in PBS) | temporal changes in the drug concentration within the perfused solution [2] | inflammatory response (CD3 staining) [3] | animals' weight increase [4] [%]
1 | bovine serum albumin [BSA] | the same release pattern as alginate | curved burst release over the first 6 hours, with slower, more linear release over the next 3 days | not statistically significant; also recorded: insignificant change in concentration | – | –
2 | vascular endothelial growth factor [VEGF] | – | – | – | did not generate a significant inflammatory response | 16
